Assay results published in PubChem BioAssay AID651563 (Sanford-Burnham Center for Chemical Genomics, 2012).
Calls of active or inactive are those of the source.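 The calls were made as follows: active = compounds whose IC50 is 20 micromolar or lower, counted as confirmed SKN-1 reporter blockers; inactive = the rest.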

Tested on: C. elegans VP596 Pgst-4::GFP/RFP ratio, acrylamide, 24 h
Assay: inhibition of acrylamide-induced Pgst-4::GFP reporter, dose response, SKN-1 inhibitor project, whole organism, GFP/RFP fluorescence ratio, set 2, strain VP596 (AID 651563);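 also: red signal is driven by the dop-3 promoter and serves as the normalizer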

- IC50: inactive: 21.8 µM
SMILES: CCc1ccc(-c2nc(-c3ccncc3)no2)cc1
